Experiments:
[1] = tested on: purely adherent cell line derived from model HBCx-17; test: SSEA4 expression of cells surviving in vitro treatment with increasing drug concentrations; conditions: purely adherent HBCx-17 derived cell line, n=4
[2] = tested on: primary tumor cell line derived from model HBCx-17 (suspension and adherent cells); test: IC50 values of commonly used chemotherapeutic drugs on suspension versus adherent subpopulations of a primary tumor cell line; type: cell-based, human; conditions: HBCx-17 derived primary tumor cell line; n=3; suspension vs adherent subpopulation

Substance | fraction of SSEA4 positive cells in the surviving population [1] | IC50 values of suspension cells (higher SSEA4 expression) compared to adherent cells [2]
4-Hydroxycyclophosphamide | significantly higher fraction of SSEA4 positive cells | –
Cisplatine | – | higher IC50 values

Reference: patent US20150316556A1, “SSEA4 AND ST3GAL2 AS CHEMOTHERAPEUTIC DRUG RESPONSE BIOMARKERS” (Miltenyi Biotech GmbH, priority 2014, published 2015)
